Measurements as given in BindingDB's records for 39563830, “Novel Aminopyrazole Inhibitors of PDE11A for the Treatment of Alzheimer's Disease and Other Types of Dementia”.

Protein sequences, listed by entry. Tags and fused reporters are not part of them. Lines headed by an entry give the natural chain unless they say otherwise; changes in a name come on top.
UniProt Q9HCR9: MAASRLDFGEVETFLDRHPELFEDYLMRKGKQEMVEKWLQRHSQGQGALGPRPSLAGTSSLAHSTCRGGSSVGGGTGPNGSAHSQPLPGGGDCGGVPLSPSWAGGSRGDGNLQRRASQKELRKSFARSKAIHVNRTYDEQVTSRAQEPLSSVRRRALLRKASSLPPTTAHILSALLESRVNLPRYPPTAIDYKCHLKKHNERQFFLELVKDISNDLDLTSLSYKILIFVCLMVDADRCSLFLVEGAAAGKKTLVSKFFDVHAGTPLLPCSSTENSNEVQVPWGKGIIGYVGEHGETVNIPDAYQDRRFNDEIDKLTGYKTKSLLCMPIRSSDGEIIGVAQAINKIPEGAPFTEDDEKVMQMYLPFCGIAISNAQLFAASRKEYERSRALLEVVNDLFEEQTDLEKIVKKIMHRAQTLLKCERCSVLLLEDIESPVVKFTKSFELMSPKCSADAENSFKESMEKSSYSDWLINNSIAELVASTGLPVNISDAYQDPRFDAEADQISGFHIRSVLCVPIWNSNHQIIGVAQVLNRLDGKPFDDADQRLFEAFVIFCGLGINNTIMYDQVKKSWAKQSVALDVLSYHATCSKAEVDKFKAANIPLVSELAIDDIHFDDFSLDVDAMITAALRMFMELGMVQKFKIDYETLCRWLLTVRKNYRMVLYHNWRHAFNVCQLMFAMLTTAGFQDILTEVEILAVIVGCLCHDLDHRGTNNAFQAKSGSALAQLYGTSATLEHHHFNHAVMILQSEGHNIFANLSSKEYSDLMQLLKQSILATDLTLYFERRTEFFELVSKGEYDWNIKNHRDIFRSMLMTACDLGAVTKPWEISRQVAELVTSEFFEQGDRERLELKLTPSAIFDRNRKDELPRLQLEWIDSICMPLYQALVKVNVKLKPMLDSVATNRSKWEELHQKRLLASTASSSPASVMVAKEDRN

Biological target: Dual 3',5'-cyclic-AMP and -GMP phosphodiesterase 11A (Homo sapiens, UniProt Q9HCR9)

CCN(CC)C(=O)c1cc(-c2nccs2)nc2c1c(C)nn2-c1ccccc1
IC50: 895 nM
